# PubChem BioAssay AID2235 (The Scripps Research Institute Molecular Screening Center, 2010)
# The chains behind the UniProt entries cited, without tags or fusion partners.
# UniProt P62136, whole entry: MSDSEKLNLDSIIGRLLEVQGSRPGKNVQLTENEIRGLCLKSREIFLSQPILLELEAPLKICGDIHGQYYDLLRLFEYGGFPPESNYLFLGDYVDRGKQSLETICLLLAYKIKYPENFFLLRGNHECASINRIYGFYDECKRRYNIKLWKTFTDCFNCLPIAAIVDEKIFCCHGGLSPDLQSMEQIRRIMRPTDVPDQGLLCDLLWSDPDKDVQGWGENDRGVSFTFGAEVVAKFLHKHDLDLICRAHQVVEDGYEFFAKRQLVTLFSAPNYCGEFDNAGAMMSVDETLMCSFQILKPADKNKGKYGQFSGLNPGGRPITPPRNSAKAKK
# The list shows a part of the results, in another mix than the full data. Some results for these compounds are left out of this collection, so the calls shown say nothing about other tests. Active and inactive are the calls of the source.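 How the source made its calls: active means inhibition above the mean inhibition of all tested compounds plus 3 SD, computed separately for each screening campaign (cut at about 15% in these data); inactive means the rest.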
# Molecular target: Serine/threonine-protein phosphatase PP1-alpha catalytic subunit (Homo sapiens) (UniProt P62136)
# Assay: PP1-alpha phosphatase inhibitors, primary screen, counter-screen for PP5 inhibitor project, biochemical, fluorescence, OMFP substrate, single point (AID 2235)
# Conditions: purified PP1alpha, at 6.7 µM, active compounds read high
row,Structure (SMILES),inhibition
1,CN1[C@@H]2CC[C@H]1CC(OC(=O)C(O)(c1ccccc1)c1ccccc1)C2 (some centres undefined),inactive: 1.94%
2,O=C(NCC1(N2CCCCC2)CCCCC1)c1cc([N+](=O)[O-])ccc1Cl,inactive: 0.43%
3,Cc1ccc(C(=O)NCC2(N3CCCCC3)CCCCC2)cc1,inactive: 1.41%
4,CCN(CC)CC(C)C(C)OC(=O)C(O)(c1ccccc1)c1ccccc1 (centres undefined),inactive: -3.4%
5,COc1cc(SC)ccc1C(=O)NCC1(N(C)C)CCCCC1,inactive: -2.03%
6,CC(C)N1C(=O)CC2(CCN(CCOC(=O)C(O)(c3ccccc3)c3ccccc3)CC2)C1=O,inactive: -1.71%
7,Cc1ccccc1C(=O)NCC1(N2CCCCC2)CCCCC1,inactive: -0.52%
8,CN(C)c1ccc(C(=O)NCC2(N(C)C)CCCCC2)cc1,inactive: -1.19%
9,CN(C)C1CCCC1OC(=O)C(O)(c1ccccc1)c1ccccc1 (centres undefined),inactive: -4.71%
10,COc1ccc(C(=O)NCC2(N(C)C)CCCCC2)cc1,inactive: -2.19%
11,CCN1CCCC(OC(=O)C2(O)c3ccccc3C=Cc3ccccc32)C1 (centres undefined),inactive: -0.29%
12,Cc1cc(C(=O)NCC2(N3CCCCC3)CCCCC2)ccc1[N+](=O)[O-],inactive: 2.55%
13,O=C(NCC1(N2CCCCC2)CCCCC1)c1cccc(Br)c1,inactive: -4.02%
14,C=CCN1CCN(CCOC(=O)C(O)(c2ccccc2)c2ccccc2)CC1,inactive: 4.75%
15,O=C(NCC1(N2CCCCC2)CCCCC1)c1cc(F)c(F)cc1Cl,inactive: 2.98%
16,COc1cc(C(=O)NCC2(N(C)C)CCCCC2)c([N+](=O)[O-])cc1OC,inactive: -5.27%
17,CN(C)C1(CNC(=O)c2ccc(Br)cc2)CCCCC1,inactive: -1.9%
18,O=C(NCC1(N2CCCCC2)CCCCC1)c1cccc(Cl)c1,inactive: -1.23%
19,COc1cccc(C(=O)NCC2(N3CCCCC3)CCCCC2)c1,inactive: -0.69%
20,COc1ccc(Cl)cc1C(=O)NCC1(N(C)C)CCCCC1,inactive: -3.6%
21,O=C(OC1CN2CCC1CC2)C(CO)(c1ccccc1)c1ccccc1 (centres undefined),inactive: -4.93%
22,CC(C)Oc1ccc(C(=O)NCC2(N(C)C)CCCCC2)cc1,inactive: -2.16%
23,CN(C)c1cccc(C(=O)NCC2(N(C)C)CCCCC2)c1,inactive: -0.03%
24,COc1ccc(Br)c(C(=O)NCC2(N3CCCCC3)CCCCC2)c1,inactive: 1.23%
